A word on the IC50: it is the point on the concentration scale where inhibition reaches its midpoint. A low value points to inhibition by little substance.

Experimental findings from ChEMBL document CHEMBL1125867 (J Med Chem, 1991) are described below.

Assay [1] in a line: Compound was evaluated for cell growth inhibition of human (WI-L2) leukemic cells. In kind it is functional, cell-based. Particulars: WIL2.
The test system of another assay is L1210. Kind of assay: Compound was evaluated for cell growth inhibition of murine (L1210) leukemic cells. It counts as functional, cell-based. The settings on record: Mus musculus.

Take `Cc1nc(N)c2nc(CN(C)c3ccc(C(=O)NC(CCC(=O)O)C(=O)O)cc3)cnc2n1` (configuration not stated): the IC50 in assay [1] stood at 330 nM; in the assay with L1210, 220 nM.
